## Apparent affinities of Ab-14 variants for a coronavirus HR2 peptide

Antigen: PDVDLGDISGINAS, a 14-residue peptide of the SARS-CoV-2 spike HR2 region.

The variants keep the light chain, the linker and the frameworks of Ab-14 (scFv order VH, a (GGGGS)3 linker, VL).
VH: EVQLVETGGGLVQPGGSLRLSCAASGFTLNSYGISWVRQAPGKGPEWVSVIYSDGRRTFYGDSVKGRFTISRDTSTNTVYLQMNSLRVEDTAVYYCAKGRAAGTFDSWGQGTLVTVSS
VL: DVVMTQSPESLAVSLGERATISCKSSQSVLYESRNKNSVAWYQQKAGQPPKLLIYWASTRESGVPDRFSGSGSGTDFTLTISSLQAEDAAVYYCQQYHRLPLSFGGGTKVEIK

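The parent was found by panning a naive human phage display library on the peptide. This is the validation round: designs drawn from the data on random variants, tested in the same kind of assay. Their group label is 14H_GP_Gen (GP: Gaussian process model; Gen: genetic algorithm; a sequence that several methods proposed may carry one label only). In AlphaSeq, yeast of one mating type display the scFv and yeast of the other type display the target. Pairs that bind mate more often; barcode pairs of the diploids are counted by sequencing. Scores were corrected for input abundance and mapped to Kd with protein pairs of known affinity run in the same pool. There are six technical replicates.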

Variants are written as CDR1, CDR2 and CDR3 of the heavy chain (limits as in the source). Parent: GFTLNSYGIS, VIYSDGRRTFYGDSVK, GRAAGTFDS. Numbers give log10(Kd / nM), so 0 is 1 nM and 3 is 1 µM. Smaller is tighter. An entry "ND" has no value in the source: the pair was not observed among the diploids in that replicate. This suggests poor binding but is not conclusive. Values of this round are not directly comparable with the first-round values of the same sequences. Empty control strains, which show no peptide, gave a signal in 1% of pairings with all heavy chain designs; the median was 2.08 and 95% of these signals were weaker than 0.84. No background was subtracted. The control count says in how many pairings with the empty strains this scFv gave a signal, with their mean in brackets. The authors averaged sequences with at least three values out of six and counted those with two or fewer as poor binders. The parent sequence was in this pool as ten entries: three were never detected, three once, and four in most replicates, with averages from 0.34 to 2.37.

{"CDR-H1": "GFDLNSYGIS", "CDR-H2": "VIYSDGKRTFYGDSVK", "CDR-H3": "GRTAGTFDE", "replicates, log10 nM": "0.16 / 0.22 / 0.00 / -0.02 / 0.16 / 0.16", "signal with controls": "1 of 18 (1.69)"}
{"CDR-H1": "YFNLNSYGIS", "CDR-H2": "VIYSDGRRTFYADSVK", "CDR-H3": "GRQAGTFDS", "replicates, log10 nM": "1.32 / 2.52 / 2.12 / 1.15 / 2.10 / 2.49", "signal with controls": "0 of 18"}
{"CDR-H1": "GFELNSYGIS", "CDR-H2": "VIYSDGRRTFYIDSVK", "CDR-H3": "GKEAGTFDS", "replicates, log10 nM": "0.30 / 0.16 / 0.49 / 0.30 / 0.14 / 0.33", "signal with controls": "2 of 18 (3.06)"}
{"CDR-H1": "GFNLNSYGIS", "CDR-H2": "VIYSDGRRTFYGDQVK", "CDR-H3": "GQTAGTFDS", "replicates, log10 nM": "3.23 / 1.49 / 0.43 / 0.61 / 0.81 / 0.61", "signal with controls": "0 of 18"}
{"CDR-H1": "GFELNEYGIS", "CDR-H2": "VIYSDGRRTFYGDQVK", "CDR-H3": "GRTAGTFDS", "replicates, log10 nM": "0.00 / ND / -0.04 / 0.25 / ND / 0.94", "signal with controls": "0 of 18"}
{"CDR-H1": "EFNLNSYGIS", "CDR-H2": "VIYSDGRRTFYGDSVK", "CDR-H3": "GRTAGTFDS", "replicates, log10 nM": "ND / ND / ND / ND / ND / ND", "signal with controls": "0 of 18"}
{"CDR-H1": "GFHLNSYGIS", "CDR-H2": "VIYSDGRRTFYQDSVK", "CDR-H3": "GKTAGTFDS", "replicates, log10 nM": "1.50 / 1.35 / 1.16 / ND / 1.68 / 1.12", "signal with controls": "0 of 18"}
{"CDR-H1": "MFDLNSYGIS", "CDR-H2": "VIYSDGRRTFYGDSVK", "CDR-H3": "GKTAGTFDS", "replicates, log10 nM": "1.72 / 1.25 / 1.08 / 1.20 / 0.84 / 1.35", "signal with controls": "0 of 18"}
{"CDR-H1": "GFDLNSYGIS", "CDR-H2": "VIYSDGRRTFYKDSVK", "CDR-H3": "GRNAGTFDS", "replicates, log10 nM": "0.23 / -0.51 / 0.22 / -0.13 / 0.28 / 0.05", "signal with controls": "0 of 18"}
{"CDR-H1": "GFDLNSYGIS", "CDR-H2": "VIYSDGRRTFYGDSVK", "CDR-H3": "GRVAGTFDM", "replicates, log10 nM": "0.99 / 0.41 / 0.59 / 0.02 / 0.62 / 0.58", "signal with controls": "0 of 18"}
{"CDR-H1": "MFDLNSYGIS", "CDR-H2": "VIYSDGKRTFYGDSVK", "CDR-H3": "GRQAGTFDS", "replicates, log10 nM": "ND / 1.75 / 1.56 / 2.21 / 1.20 / 0.93", "signal with controls": "1 of 18 (2.00)"}
{"CDR-H1": "GFELNSYGIS", "CDR-H2": "VIYSDGRRTFYDDSVK", "CDR-H3": "GKAAGTFDS", "replicates, log10 nM": "0.13 / 1.04 / 0.20 / 0.09 / -0.30 / 0.32", "signal with controls": "0 of 18"}
{"CDR-H1": "GFTLNSYGIS", "CDR-H2": "VIYSDGRRTFYQDSVK", "CDR-H3": "GKVAGTFDS", "replicates, log10 nM": "ND / 3.52 / 1.21 / 0.61 / ND / 0.99", "signal with controls": "0 of 18"}
{"CDR-H1": "GFHLNSYGIS", "CDR-H2": "VIYSDGRRTFYVDSVK", "CDR-H3": "GKQAGTFDS", "replicates, log10 nM": "ND / ND / ND / ND / ND / ND", "signal with controls": "0 of 18"}
{"CDR-H1": "GFELNEYGIS", "CDR-H2": "VIYSDGRRTFYGDSVK", "CDR-H3": "GKVAGTFDS", "replicates, log10 nM": "0.01 / -0.27 / -0.39 / -0.42 / -0.35 / -0.11", "signal with controls": "0 of 18"}
{"CDR-H1": "SFDLNSYGIS", "CDR-H2": "VIYSDGRRTFYIDSVK", "CDR-H3": "GRTAGTFDS", "replicates, log10 nM": "0.71 / 1.82 / 0.92 / 1.23 / 0.34 / 0.74", "signal with controls": "1 of 18 (2.32)"}
{"CDR-H1": "GFDLNSYGIS", "CDR-H2": "VIYSDGRRTFYADQVK", "CDR-H3": "GRNAGTFDS", "replicates, log10 nM": "0.45 / -0.04 / -0.04 / -0.17 / -0.22 / 0.43", "signal with controls": "0 of 18"}
{"CDR-H1": "KFDLNSYGIS", "CDR-H2": "VIYSDGRRTFYKDSVK", "CDR-H3": "GRTAGTFDS", "replicates, log10 nM": "1.53 / 1.11 / 0.36 / 1.16 / 0.19 / 0.83", "signal with controls": "0 of 18"}
{"CDR-H1": "HFDLNSYGIS", "CDR-H2": "VIYSDGRRTAYGDSVK", "CDR-H3": "GRAAGTFDS", "replicates, log10 nM": "0.30 / 0.39 / 0.61 / 0.66 / 0.46 / 1.91", "signal with controls": "0 of 18"}
{"CDR-H1": "GFSLNEYGIS", "CDR-H2": "VIYSDGRRTFYGDDVK", "CDR-H3": "GKAAGTFDS", "replicates, log10 nM": "0.46 / 0.43 / 0.18 / -0.13 / 0.41 / 0.45", "signal with controls": "0 of 18"}
{"CDR-H1": "GFSLNSYGIS", "CDR-H2": "VIYSDGRRTFYGDSVK", "CDR-H3": "GWEAGTFDS", "replicates, log10 nM": "ND / 1.08 / 1.02 / 1.91 / ND / 2.31", "signal with controls": "0 of 18"}
{"CDR-H1": "GFELNSYGIS", "CDR-H2": "VIYSDGRRTFYSDSVK", "CDR-H3": "GKTAGTFDS", "replicates, log10 nM": "-0.06 / -0.15 / -0.36 / -0.53 / -0.24 / -0.11", "signal with controls": "1 of 18 (2.21)"}

Source: Li et al. 2023 (doi:10.1038/s41467-023-39022-2), MIT Lincoln Laboratory and A-Alpha Bio; data file from the FLAb repository.